Publication PMC7335050, “Characterization of an alternative BAK-binding site for BH3 peptides” (Nature Communications, 2020)

Assays:
BAK (His6-BAKΔTM) = test: Liposome permeabilization assay (FITC-dextran release) with BAK; assay type: biochemical, human; details: 50 nM BAK + 50 nM BH3 peptide
Protocol: 1-Palmitoyl-2-oleoyl-sn-glycero-3-phosphocholine, 1-plamitoyl-2-oleoyl-sn-glycero-3-phosphoethanolamine, L-α-phosphatidyl-inositol, cardiolipin, cholesterol and 18:1 DGS-NTA(Ni) were mixed at a weight ratio of 36:22:9:8:20:5, and dried as thin films in glass test tubes under nitrogen for 16 h. To encapsulate FITC-labeled dextran 10 (F-d10), 50 mg F-d10 was added to 50 mg lipid in 1 ml of 150 KCl buffer containing 20 mM HEPES (pH 7.0), sonicated and extruded 15 times through a 400 nm polycarbonate membrane. Liposomes with F-d10 were further purified by gel filtration on Sephacryl S-300 HR (GE Healthcare). Phosphate was determined by colorimetric assay (Abcam, Cambridge, UK).
Release of F-d10 from large unilamellar vesicles (LUVs) was monitored by fluorescence dequenching[25] using a fluorimetric plate reader (Thermo Scientific) with SoftMax Pro software. After addition of purified His6-BAKΔTM and/or the BH3 peptides to LUVs (final lipid concentration 10 µg ml^−1), 96 well plates were incubated at 37 °C and recorded (excitation 485 nm, emission 538 nm) every 10 sec. FITC-labeled dextran release was calculated using the equation ((Fsample − Fblank)/(FTriton − Fblank) × 100%), where Fsample, Fblank, and FTriton are the fluorescence recorded for the reagent-, buffer-, and 1% Triton-treated LUVs, respectively.

[1] = system: Bak in mitochondria from Bax−/− MEFs; test: Cytochrome c release from mitochondria of Bax−/− MEFs; assay type: biochemical, mouse; details: 90 min at 25 °C, immunoblotting of supernatants and pellets; 10 μM highest concentration tested
Protocol: Mitochondria[43] purified from Bax^−/− MEFs were incubated with the indicated concentrations of navitoclax, S63845 or BH3 peptides at 25 °C for 90 min. After centrifugation (10,000 g, 15 min) and washing, supernatants and pellets were analyzed by immunoblotting. Alternatively, His6-BAKΔTM was dialyzed against mitochondria (mito) buffer (150 mM KCl, 5 mM MgCl2, 1 mM EGTA, 25 mM HEPES, pH 7.5) and diluted into mito buffer with 5 mM DTT. Mitochondria purified from Bak^−/−Bax^−/− MEFs were then incubated with 2 μM His6-BAKΔTM and the indicated BH3 peptides (5 μM) at 25 °C for 90 min. After centrifugation (10,000 × g, 15 min) and washing, supernatants and pellets were analyzed by immunoblotting.

BAKΔTM = target: T1, BAKΔTM (Homo sapiens, UniProt Q16611); test: SPR binding of BH3 peptides to immobilized BAKΔTM; details: 25 °C
T1 construct: BAKΔTM (GenBank BC004431, residues 1–186); His6; made in house; host or cells: E. coli BL21
T1 sequence (Q16611 1-186): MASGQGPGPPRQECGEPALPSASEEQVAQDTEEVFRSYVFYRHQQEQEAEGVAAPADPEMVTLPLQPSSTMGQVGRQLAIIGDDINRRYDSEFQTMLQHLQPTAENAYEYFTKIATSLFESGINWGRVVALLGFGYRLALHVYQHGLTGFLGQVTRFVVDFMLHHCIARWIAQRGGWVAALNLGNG

SMILES: CSCC[C@H](NC(=O)[C@H](CCCNC(=N)N)NC(=O)[C@H](CCCNC(=N)N)NC(=O)[C@H](CC(C)C)NC(=O)[C@H](CCC(=O)O)NC(=O)[C@H](CCCNC(=N)N)NC(=O)CNC(=O)[C@H](Cc1ccc(O)cc1)NC(=O)[C@H](CCCNC(=N)N)NC(=O)[C@H](CCC(N)=O)NC(=O)[C@H](C)NC(=O)[C@H](C)NC(=O)[C@@H](N)Cc1c[nH]c2ccccc12)C(=O)N[C@@H](CO)C(=O)N[C@@H](CC(=O)O)C(=O)N[C@@H](CCC(=O)O)C(=O)N[C@@H](Cc1ccccc1)C(=O)N[C@H](C(=O)N[C@@H](CC(=O)O)C(=O)N[C@@H](CO)C(=O)N[C@@H](Cc1ccccc1)C(=O)N[C@@H](CCCCN)C(=O)N[C@@H](CCCCN)C(=O)NCC(=O)N[C@@H](CC(C)C)C(=O)N1CCC[C@H]1C(=O)O)C(C)C [BAD BH3, reference compound]
- Increase of BAK-mediated liposome release, in words (BAK (His6-BAKΔTM)): did not appreciably increase
- Concentration that induced cytochrome c release [1]: > 10 µM
- Kd (BAKΔTM; BAKΔTM immobilized on CM5 chip, steady-state analysis, three independent SPR assays, top concentrations not threefold above KD, read-out: Approximate dissociation constant ranges, KDs for BAK): > 10 µM
- Binding to BAKΔTM by SPR, in words (BAKΔTM; immobilized BAKΔTM): much lower affinity
